Source: patent US10544136B2, “Modulators of sphingosine phosphate receptors” (The Scripps Research Institute, priority 2008, dated 2020)

By UniProt entry, the sequences of proteins in these tests, tags left out.
UniProt P21453, whole entry: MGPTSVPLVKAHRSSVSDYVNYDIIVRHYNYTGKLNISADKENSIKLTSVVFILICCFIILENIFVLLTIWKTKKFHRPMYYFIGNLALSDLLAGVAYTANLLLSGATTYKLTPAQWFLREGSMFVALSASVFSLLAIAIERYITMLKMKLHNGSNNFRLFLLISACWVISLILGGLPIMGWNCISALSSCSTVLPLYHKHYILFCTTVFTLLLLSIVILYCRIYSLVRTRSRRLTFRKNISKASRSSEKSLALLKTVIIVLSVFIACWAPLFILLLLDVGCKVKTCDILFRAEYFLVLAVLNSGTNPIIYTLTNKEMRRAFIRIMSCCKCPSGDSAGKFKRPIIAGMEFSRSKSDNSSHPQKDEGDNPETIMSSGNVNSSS
UniProt Q99500, whole entry: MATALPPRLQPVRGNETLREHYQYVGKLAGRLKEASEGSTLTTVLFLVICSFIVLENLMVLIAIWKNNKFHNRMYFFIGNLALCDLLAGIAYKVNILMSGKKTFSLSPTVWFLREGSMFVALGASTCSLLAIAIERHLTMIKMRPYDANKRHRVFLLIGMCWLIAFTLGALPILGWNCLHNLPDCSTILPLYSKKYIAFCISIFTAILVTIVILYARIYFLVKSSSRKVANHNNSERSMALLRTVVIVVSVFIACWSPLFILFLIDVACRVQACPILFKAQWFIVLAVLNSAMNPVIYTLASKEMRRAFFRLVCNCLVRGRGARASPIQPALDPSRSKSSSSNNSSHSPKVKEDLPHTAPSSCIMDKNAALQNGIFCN

Key:
[1] = target: S1P1 (Homo sapiens (Human), UniProt P21453); experiment: S1P1 agonist assay (Ec50 S1P1Ag); type: cell-based; details: read-out: Ec50 (S1P1Ag)
[2] = target: S1P3 (Homo sapiens (Human), UniProt Q99500); experiment: S1P3 agonist assay (Ec50 S1P3Ag); details: read-out: Ec 50 (S1P3Ag)
[3] = target: T1, GFP-tagged human S1P1 receptor (S1P1-GFP) (Homo sapiens (Human), UniProt P21453); experiment: Immunoprecipitation/immunoblotting for ligand-stimulated S1P1-GFP polyubiquitination in HEK-293 cells; details: HEK 293-S1P1-GFP cells
[4] = system: mice; experiment: Lymphopenia in mice; details: delivered by gavage
[5] = target: T1, GFP-tagged human S1P1 receptor (S1P1-GFP); experiment: Microscopy imaging of ligand-mediated S1P1-GFP internalization in HEK-293 cells; details: HEK 293-S1P1-GFP cells

Row | Compound | EC50 [1] | also measured
1 | CCOc1ccc(-c2nc(-c3cccc4[nH]cc(CNCCO)c34)no2)cc1OCC | 0.648 µM | –
2 | COc1cc(-c2noc(-c3ccnc(F)c3)n2)ccc1C | 1.18 µM | –
3 | CCOc1ccc(-c2nc(-c3ccncc3C)no2)cc1OCC | – | S1P1 polyubiquination [3]: robustly induces internalization and polyubiquination; lymphopenia [4]: did not induce lymphopenia; S1P1-GFP internalization [5]: robustly induces internalization
4 | CC(C)Cc1cc(-c2nc(-c3ccc(S(N)(=O)=O)cc3)no2)no1 | – | EC50 ([1]; unit μM/uM): 19.7 µM
5 | COc1cc(OC)cc(-c2nc(-c3ccncc3)no2)c1 | 4.4 µM | –
6 | Cc1ccc(-c2nc(-c3cccnc3)no2)cc1C(F)(F)F | 0.492 µM | –

Now from value to molecule, other results behind:

Row | EC50 [1] | Compound | also measured
7 | 0.0154 µM | CCOc1ccc(-c2nc(-c3ccc4[nH]c(C(F)(F)F)nc4c3)no2)cc1OCC | –
8 | 0.0149 µM | CCOc1ccc(-c2nc(-c3ccc(C(=O)Nc4ccncc4)cc3C)no2)cc1OCC | –
9 | 0.0015 µM | CCOc1ccc(-c2nc(-c3cccc4[nH]cnc34)no2)cc1OCC | EC50 [2]: 2300 nM
10 | 0.249 µM | COc1cc(-c2nc(-c3ccnc(N)c3)no2)ccc1C | –
11 | 0.0088 µM | CCOc1ccc(-c2nc(-c3cccnc3)no2)cc1OCC | EC50 [2]: 5370 nM
12 | 0.0848 µM | COc1cc(-c2nc(-c3ccncc3C)no2)ccc1C | –

Where two headings read alike, the source gives them in different places.
